This note sets out measurements from patent EP0938471B1, “THE PREPARATION AND USE OF ORTHO-SULFONAMIDO ARYL HYDROXAMIC ACIDS AS MATRIX METALLOPROTEINASE AND TACE INHIBITORS” (priority 1996, dated 1998).

One experiment has as its target T1, MMP-1 (Homo sapiens, UniProt P03956).
T1 sequence (P03956 100-469): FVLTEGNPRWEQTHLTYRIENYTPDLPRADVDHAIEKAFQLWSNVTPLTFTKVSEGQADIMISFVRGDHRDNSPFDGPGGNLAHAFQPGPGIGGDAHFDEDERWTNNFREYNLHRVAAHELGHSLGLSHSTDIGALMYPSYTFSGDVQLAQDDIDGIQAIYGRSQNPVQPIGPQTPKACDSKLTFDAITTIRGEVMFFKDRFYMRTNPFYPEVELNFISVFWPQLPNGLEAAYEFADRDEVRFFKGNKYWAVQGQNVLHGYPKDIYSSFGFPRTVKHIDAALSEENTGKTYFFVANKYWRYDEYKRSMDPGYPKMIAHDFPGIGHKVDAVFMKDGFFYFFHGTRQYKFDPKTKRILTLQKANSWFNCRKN
Nature of the experiment: MMP-1 inhibition (thiopeptide or fluorescent peptide substrate assay). The experiment is classed as biochemical.

Another experiment concerns the target MMP-13 (Homo sapiens, UniProt P45452). Put plainly: MMP-13 inhibition (thiopeptide or fluorescent peptide substrate assay). Type of experiment: biochemical.

Molecules are shown by their SMILES.

`COc1ccc(S(=O)(=O)N(Cc2ccccc2)c2c(C)cccc2C(=O)NO)cc1` [Example 28, 2-[Benzyl-(4-methoxy-benzenesulfonyl)-amino]-N-hydroxy-3-methyl-benzamide]: at MMP-1, the IC50 stood at 115 nM.

In turn, `COc1ccc(S(=O)(=O)N(Cc2cccnc2)c2c(C)cccc2C(=O)NO)cc1` [Example 61, N-Hydroxy-2-[(4-methoxy-benzenesulfonyl)-pyridin-3-ylmethyl-amino]-3-methyl-benzamide] returned an IC50 at MMP-13 of 33 nM.

For orientation: IC50 means the concentration that gives 50% inhibition.
